The values below come from paper PMC7351598.

The term Kd denotes a measure of binding affinity in units of concentration.

The assay deals with NT-647-NHS-labeled AcrIIA1 (Listeria phage). As to the kind of experiment: MST.

In turn, “SpyCas9 (QB3 Macrolab) (from UniProt Q99ZW2 1-1368) (enzyme)” gave a Kd of 18 nM.
